Target: D(2) dopamine receptor (Rattus norvegicus, UniProt P61169)
Assay: Displacement of [3H]raclopride from rat dopamine D2 receptor

Chains of the proteins cited; added tags and fusions are not shown.
UniProt P61169, whole entry: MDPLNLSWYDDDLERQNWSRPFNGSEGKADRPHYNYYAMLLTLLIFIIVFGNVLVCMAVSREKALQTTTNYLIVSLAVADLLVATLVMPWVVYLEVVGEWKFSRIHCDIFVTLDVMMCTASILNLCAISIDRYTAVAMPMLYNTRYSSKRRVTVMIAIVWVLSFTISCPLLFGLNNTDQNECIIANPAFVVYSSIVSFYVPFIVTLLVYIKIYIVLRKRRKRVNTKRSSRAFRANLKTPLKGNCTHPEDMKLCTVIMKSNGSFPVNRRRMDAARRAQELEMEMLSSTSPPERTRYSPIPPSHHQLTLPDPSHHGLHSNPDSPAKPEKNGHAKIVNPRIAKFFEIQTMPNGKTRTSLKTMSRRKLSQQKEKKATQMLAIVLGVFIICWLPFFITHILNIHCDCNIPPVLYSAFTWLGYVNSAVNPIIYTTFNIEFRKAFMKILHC

COc1cc2c3c(c1OC)-c1c(ccc(O)c1O)CC3N(C)CC2 (stereo unspecified) [SUAVEOLINE]
IC50: 500 nM
